Measured values from patent EP0116944B1 (priority 1983, dated 1984).

Experiments:
[1] = tested on: Blutdruck anästhesierter Kaninchen; assay: Effect on blood pressure of anaesthetised rabbits; conditions: narkotisierte Kaninchen
hypotensive Wirkung = assay: Hypotensive effect after pretreatment with intravenous dihydroergotamine (DHE); assay type: in vivo; conditions: Vorbehandlung mit intravenösem Dihydroergotamin (DHE)
[2] = tested on: Vasopressin-induzierten Koronarspasmen; conditions: oral, 40 mg/Tier, Ratten
systolischen Blutdruck = assay: Effect on blood pressure in conscious dogs (sublingual administration); assay type: in vivo; conditions: Hunde
[3] = tested on: Blutdruck anästhesierter Hunde; assay: Effect on blood pressure of anaesthetised dogs; conditions: narkotisierte Hunde
[4] = tested on: Blutdruck anästhesierter Ratten; assay: Effect on blood pressure of anaesthetised rats; assay type: in vivo; conditions: narkotisierte Ratten
[5] = Comparative pharmacokinetics (i.v., p.o.) in a conscious dog; conditions: wacher Hund

In the case of `O=[N+]([O-])OCC(O)CO` (stereo not shown), the “Stärke des hypotensiven Effekts gegenüber GTN” value ([1]; intraduodenal) is reported as “nur geringfügig schwächer als GTN”, the “Wirkungsdauer gegenüber GTN” value [1] is reported as “ging deutlich über die von GTN” and the “hypotensive Wirkung nach Vorbehandlung mit DHE” value (hypotensive Wirkung) is reported as “erheblich herabgesetzt”. The “Dauer der antianginösen Wirkung gegenüber Vasopressin” value [2] was 2 to 3 h, the “Einfluß auf den systolischen Blutdruck” value (systolischen Blutdruck) was “senkten” and the “Wirkungsdauer gegenüber GTN” value (systolischen Blutdruck; in höherer Konzentration) was “für viel längere Zeiten wirksam als GTN”. For the same compound, the “Beginn der Wirkung” value (systolischen Blutdruck; systolischer Blutdruck) was 2,1 min, the “Stärke des hypotensiven Effekts gegenüber GTN” value ([3]; intraduodenal) was “nur geringfügig schwächer als GTN” and the “Wirkungsdauer gegenüber GTN” value [3] was “ging deutlich über die von GTN”. The “Wirkung, mal schwächer als GTN” value ([4]; hypotensive effect, intraduodenal) was 38 mal, the “Wirkungsdauer gegenüber GTN” value [4] was “ging deutlich über die von GTN” and the Bioverfügbarkeit ([5]; i. v., p. o.) was 58%. For the same compound, the Halbwertzeit [5] was 3,4 h.
